Assay outcomes from PubChem.
Rango dissoc inh – prevents RanGTP from dissociating the Rango-importin beta complex; Biochemical FRET Rango-importin beta, RanGTP-induced dissociation; O95149+P62826; actives 0.071% (n = 340,000); Potency, µM (doses to about 46.1 µM), without a hit: at the highest dose activity change, negative = inhibition; calls by dose curve; further: % of control where 0% means no effect; nearly all actives have a fitted effect of over 45% in size
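Rango (0.1 uM)–importin beta (0.25 uM) complex; RanGTP-RCC1 trigger; 45 min RT; CFP/YFP FRET read.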
EPAC2 agonist – EPAC2 (human) agonism; Q8WZA2; EPAC2 activation, biochemical qHTS; response scale: 100% = 6.5 mM cAMP response; Potency, µM (doses to about 154 µM), without a hit: top-dose activation, usual class: activators; actives 0.079% (n = 360,000); AID 720711; further: nearly all actives have a fitted effect of over 50% in size
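Fluorescence exchange assay: 100 nM EPAC2 with 250 nM RAP1B-BODIPY-GDP and 50 uM GDP; compounds tested as a concentration-titration series (qHTS). Loss of Rap1-bound BODIPY-GDP fluorescence read at 480/540 nm; data normalized to 6.5 mM cAMP.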
EPAC1 antagonist – EPAC1 (human) antagonism; EPAC1 GEF assay, Rap1b-BODIPY-GDP exchange fluorescence; Potency, µM (series often up to 115 µM), for the others: at the highest dose activity change, negative = inhibition, hits mostly inhibitors; O95398; actives 0.14% (n = 360,000); AID 720709;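 further: plate controls were vehicle for no effect and positive control for full effect; nearly all actives have a fitted effect of over 50% in size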
Rango complex inh – inhibitors of Rango-importin beta complex formation. Q14974. Rango CFP/YFP FRET sensor + importin beta, 45 min. Potency, µM (series often up to 92.2 µM), inactives show at the top dose inhibition of complex formation. actives 0.031% (n = 340,000); calls by dose curve;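 further: 0% = DMSO wells and 100% = buffer wells lacking importin beta; nearly all actives have a fitted effect of over 15% in size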
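Inhibition scored from the CFP 486 nm/YFP 530 nm FRET ratio 45 min after adding 0.125 microM importin beta to 50 nM Rango biosensor preincubated 5 min with compound (room temperature, PBS with DTT, Tween-20, BSA). No-importin wells as positive control.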
EPAC1 agonist – agonists of human EPAC1 | EPAC1 agonist qHTS, biochemical assay; response scale: 100% = response to 6.5 mM cAMP | Potency, µM (highest dose often 154 µM), for inactives: at the highest dose activation, actives largely listed as activators | actives 0.073% (n = 360,000) | O95398; further: nearly all actives have a fitted effect of over 60% in size
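Fluorescent GDP-exchange assay: 100 nM EPAC1 with 250 nM Rap1B preloaded with BODIPY-GDP and 50 uM GDP; compounds tested as concentration series, 5 min at room temperature, then read every 5 min for 30 min (ex 480/em 540 nm); normalized to 6.5 mM cAMP.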
EPAC2 antagonist – EPAC2 (human) antagonism; Q8WZA2; EPAC2 GEF exchange of Rap1B-BODIPY-GDP, fluorescence; Potency, µM (highest dose often 114 µM), inactives show at the highest dose activity, negative = inhibition, hits mostly inhibitors; actives 0.18% (n = 360,000); AID 720708; further: on the % scale 0 is the no-effect control and ±100 the full control effect; nearly all actives have a fitted effect of over 45% in size
* hit, by the source's call; u = inconclusive; x = not tested or not shown; [ ] = remark or other dose. In the library only some 0.43% were active in any assay of this set; here they are far more common. Unless noted, the call rests on the fitted dose curve; in most records, active means well fitted curve in the direction sought with a large enough effect; inconclusive means small, poorly fitted or top-dose-only effect, or another doubt; inactive means no such curve, though single readings can be large; an effect the other way counts as inactive or inconclusive. Potency means the concentration at half of the fitted maximal effect.

Start of the listing, in advance:
#	Compound	Rango dissoc inh	EPAC2 agonist	EPAC1 antagonist
1	CCCCN(C=O)c1c(CC)nc2ccc(C(=O)N(C)Cc3ccco3)cn12	x	-4%	7%
2	CNc1snc(C)c1C(=O)OCC(=O)Nc1ccc(C)cc1F	12%	-8%	-8%
3	COC(=O)c1ccc(C2N=C(c3cccs3)CC(c3ccccc3O)N2)cc1 (stereo not given)	15µM*	12%	-9%

#	Rango complex inh	EPAC1 agonist	EPAC2 antagonist
1	x	-15%	6%
2	4%	56µM*	-3%
3	u	8%	6%

Results, from the start:
#	Compound	Rango dissoc inh	EPAC2 agonist	EPAC1 antagonist
1	CCCCN(C=O)c1c(CC)nc2ccc(C(=O)N(C)Cc3ccco3)cn12	x	-4%	7%
2	CNc1snc(C)c1C(=O)OCC(=O)Nc1ccc(C)cc1F	12%	-8%	-8%
3	COC(=O)c1ccc(C2N=C(c3cccs3)CC(c3ccccc3O)N2)cc1 (stereo not given)	15µM*	12%	-9%
4	O=C(c1ccccc1)N1N=C(c2cccs2)CC1c1ccccc1O (stereo not given)	-5%	8%	-18%
5	CCCn1c(=O)n(C)c(=O)c2c(SCC(=O)NCc3ccco3)nc(C3CC3)nc21	22%	10µM*	-10%
6	Cn1c(=O)c2c(SCC(=O)NCc3ccco3)nc(-c3ccccc3Cl)nc2n(C)c1=O	13%	3%	6%
7	CCCCNC(=O)C1c2ccccc2OCC(=O)N1Cc1cccnc1 (stereo not given)	x	9%	-7%
8	CSc1nc(N2CCOCC2)c2c3c(sc2n1)CCCC3	-26%	3%	-10%
9	Cc1cc(NC(=O)c2ccccc2F)n(-c2nc3ccccc3[nH]2)n1	-10%	-4%	-9%
10	Cc1cc(Nc2ccccc2)n(-c2nc3ccccc3[nH]2)n1	-6%	6.3µM*	-10%
11	CC(=O)c1ccc(NC(=O)CN2C(=O)/C(=C/C=C/c3ccccc3)SC2=S)cc1	20%	-53%	2%
12	O=C(CCN1C(=O)/C(=C/c2ccco2)SC1=S)Nc1ccc(C(=O)O)c(O)c1	7%	0%	-22%
13	COc1ccccc1/C=C1\SC(=S)N(CCC(=O)Nc2ccc(C(=O)O)c(O)c2)C1=O	7%	7%	50µM*
14	CC(/C=C1\SC(=S)N(CCC(=O)Nc2cccc(C(=O)O)c2)C1=O)=C\c1ccccc1	-25%	6%	79µM*
15	O=C(O)CN1C(=O)/C(=C/C=C/c2ccccc2)SC1=S	-20%	11%	1%

#	Rango complex inh	EPAC1 agonist	EPAC2 antagonist
1	x	-15%	6%
2	4%	56µM*	-3%
3	u	8%	6%
4	5%	4%	-29%
5	6%	-7%	-16%
6	-2%	3%	4%
7	x	2%	-1%
8	0%	5%	18µM*
9	3%	-1%	-22%
10	4%	8%	8%
11	29µM*	-49%	6%
12	-1%	0%	8%
13	1%	4%	-10%
14	-4%	28%	u
15	1%	9%	-14%[57.1 µM]

Next section
#	Compound	Rango dissoc inh	EPAC2 agonist	EPAC1 antagonist
16	Cc1cc(C)cc(C(O)c2ncc(-c3cccc(F)c3)[nH]2)c1 (stereo not given)	x	3%	-2%
17	COC(=O)C1=CN(c2cccc(OCc3ccccc3)c2)C(N)=C(C#N)C1c1ccc(-c2ccccc2)cc1 (stereo not given)	x	6%	-5%
18	COCCCNC(=O)c1ccc2c3c(onc13)-c1ccccc1C2=O	-8%	100µM*	u
19	CCCCCc1c2c(cc(O)c1C(=O)O)OC(=O)c1c(cc(OC)cc1C(=O)CCCC)O2	1%	-6%	50µM*
20	CCCCc1c(C(=O)O)cc(OC)cc1C(=O)O	0%	-1%	10%
21	COc1ccc(OC)c(C(=O)CCCC(=O)c2cc(OC)ccc2OC)c1	2%	22%	-17%
22	CCCCCc1c2c(cc(O)c1C(=O)O)OC(=O)c1cc(C(=O)CCCC)c(OC)cc1O2	3%	4%	50µM*
23	O=C(Nc1ccc2c(c1)OCCO2)C1C(c2ccccc2)=Nc2ccccc2N1C(=O)c1cccnc1 (stereo not given)	x	10%	-5%
24	CCOC(=O)[C@]12CCCC=C1N(Cc1ccc3c(c1)OCO3)C(=O)[C@H](CC(=O)NCc1cccc(C(F)(F)F)c1)C2	x	1%	12%
25	O=C(CSc1nnc(SCc2ccc(Cl)cc2)s1)N/N=C/c1ccc(C(=O)O)cc1	u	-4%	8%
26	O=C(COc1ccccc1C(=O)N/N=C\c1ccc(O)c(O)c1)N/N=C/c1ccc(O)c(O)c1	0%	-5%	10µM*
27	O=C(N[C@@H]1CC[C@@H](CCNS(=O)(=O)c2ccc(Cl)cc2)O[C@@H]1CO)c1cccnc1	x	8%	26%
28	CCOc1cc(/C=N/NC(=O)c2ccc3c(c2)OCCO3)cc(Br)c1O	u	9%	71µM*
29	CCOC(=O)N1CCN(C(=O)C[C@@H]2C[C@@]3(C(=O)OCC)CCC=C3N(Cc3cccc4ccccc34)C2=O)CC1	x	6%	-11%
30	O=C(NCc1cc(C(F)(F)F)ccc1Cl)c1cccc2c1C(=O)c1ccc(N3CCC(N4CCCCC4)CC3)cc1S2(=O)=O	x	89µM*	u

#	Rango complex inh	EPAC1 agonist	EPAC2 antagonist
16	x	-1%	15%
17	x	0%	23%
18	-1%	79µM*	39%
19	0%	-11%	50µM*
20	0%	6%	8%
21	2%	14%	-12%
22	1%	-32%	u
23	x	2%	2%
24	x	-14%	-8%
25	1%	2%	45µM*
26	-1%	-9%	10%
27	x	4%	11%
28	u	-5%	12%
29	x	5%	-20%
30	x	-12%	u

Single entries from the results shown:
Rango dissoc inh, entry 26 = 0%
Rango dissoc inh, entry 18 = -8%
EPAC1 antagonist, entry 19 = 50µM*
EPAC1 agonist, entry 12 = 0%

The list goes on.
#	Compound	Rango dissoc inh	EPAC2 agonist	EPAC1 antagonist
31	O=C(NCc1ccc(OC(F)(F)F)cc1)c1cccc2c1C(=O)c1ccc(N3CCCC3)cc1S2(=O)=O	-16%	100µM*	-9%
32	O=C(NCc1cc(C(F)(F)F)ccc1Cl)c1cccc2c1C(=O)c1ccc(N3CCCCC3)cc1S2(=O)=O	u	29%	-3%
33	O=C(NCc1ccc(OC(F)(F)F)cc1)c1cccc2c1C(=O)c1ccc(N3CCCCC3)cc1S2(=O)=O	u	100µM*	22%
34	O=C(NCc1ccc(OC(F)(F)F)cc1)c1cccc2c1C(=O)c1ccc(N3CCC(Cc4ccccc4)CC3)cc1S2(=O)=O	u	-12%	-3%
35	O=c1[nH][nH]c2c1[C@H](c1ccc(F)cc1)O[C@H](CCC(F)(F)F)C2	x	1%	-12%
36	Oc1ccccc1C=Nc1cccc2ccccc12	12%	-3%	-17%
37	Oc1cccc(C=Nc2cccc3ccccc23)c1O	-21%	12%	50µM*
38	CCOC(=O)c1cc(-c2ccc(/C=C3/C(=O)N(c4ccc(C(=O)O)cc4)N=C3C)o2)ccc1Cl	9%	2%	35µM*
39	CN(C)CCNS(=O)(=O)c1ccc2c3c(cccc13)C(=O)N2	u	4%	-20%
40	O=C1Nc2ccc(S(=O)(=O)NCc3ccccn3)c3cccc1c23	7.3µM*	10%	-14%

#	Rango complex inh	EPAC1 agonist	EPAC2 antagonist
31	u	8%	79µM*
32	u	11%	372%
33	u	-11%	202%
34	u	17%	32%
35	x	-2%	2%
36	5%	6%	-6%
37	u	-5%	12%
38	-5%	7%	3%
39	u	9%	-4%
40	u	-7%	-6%
